Patent US8796297B2, “4-substituted-2-amino-pyrimidine derivatives” (AbbVie Inc., priority 2009, dated 2014)

The chains behind the UniProt entries cited, without tags or fusion partners. Where a name states a change or a piece, a line headed by the entry shows the natural chain unless it says otherwise.
UniProt Q9QYN8: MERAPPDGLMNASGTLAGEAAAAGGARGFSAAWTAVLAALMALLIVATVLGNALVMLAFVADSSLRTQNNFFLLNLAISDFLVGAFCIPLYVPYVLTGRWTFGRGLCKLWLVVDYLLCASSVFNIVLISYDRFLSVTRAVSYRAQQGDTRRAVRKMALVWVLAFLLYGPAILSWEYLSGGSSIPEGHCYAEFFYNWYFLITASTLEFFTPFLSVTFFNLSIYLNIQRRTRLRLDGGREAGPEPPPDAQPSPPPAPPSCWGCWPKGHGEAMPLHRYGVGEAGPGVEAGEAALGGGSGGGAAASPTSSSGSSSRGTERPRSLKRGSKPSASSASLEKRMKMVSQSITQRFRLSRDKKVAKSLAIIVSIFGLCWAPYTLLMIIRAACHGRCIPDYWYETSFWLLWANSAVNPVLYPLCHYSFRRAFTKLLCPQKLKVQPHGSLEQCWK

Legend:
[1] = target: T1, rat histamine H3 receptor (Rattus norvegicus (Rat), UniProt Q9QYN8); assay: FLIPR functional assay (Ca2+, HEK-293 cells coexpressing Gαqi5), rat H3 receptor; format: cell-based; details: FLIPR agonist potency
Description: There are many methods available to show the effectiveness of compounds as histamine H3 receptor ligands. Histamine H3 receptors from mammalian species have been cloned. Methods to clone, express, and assess the potency and functional activity of such cloned genes are well known to those skilled in the art of molecular biology. […] For partial agonist or full agonist ligands, addition of compound to the cells led to an increase in intracellular Ca^+2 which was detected by FLIPR (Fluorescence Imaging Plate Reader; Molecular Devices, Sunnyvale, Calif.) technology. The fluorescence intensities measured before addition of the test compound were subtracted from the fluorescence intensities at later time points. Peak response values determined at each concentration of ligand were expressed as a percentage of the response obtained with a maximal concentration (1 μM) of the full agonist R-α-methyl-histamine (RAMH). Concentration versus response data were analyzed to obtain compound potency as EC50 values for full and partial agonists.

[2] = target: T1, rat histamine H3 receptor; assay: Radioligand competition binding assay, rat H3 receptor; details: [3H]-N-α-methylhistamine competition binding
Protocol: To determine the effectiveness of representative compounds of this invention as histamine-3 receptor ligands (H3 receptor ligands), the following tests were conducted according to previously described methods (see European Journal of Pharmacology 1990, 188, 219-227; Journal of Pharmacology and Experimental Therapeutics 1995, 275, 598-604; Journal of Pharmacology and Experimental Therapeutics 1996, 276, 1009-1015; and Biochemical Pharmacology 1973, 22, 3099-3108).
The rat H3 receptor was cloned and expressed in cells, and competition binding assays carried out, according to methods previously described (see Esbenshade, et al. Journal of Pharmacology and Experimental Therapeutics 2005, 313, 165-175; Esbenshade et al., Biochemical Pharmacology 2004, 68, 933-945; and Krueger, et al. Journal of Pharmacology and Experimental Therapeutics 2005, 314, 271-281). […]
Membrane preparations were incubated with [^3H]-N-α-methylhistamine (0.5-1.0 nM) in the presence or absence of increasing concentrations of ligands for H3 receptor competition binding. […] Bound radiolabel was determined by liquid scintillation counting. For all of the radioligand competition binding assays, IC50 values and Hill slopes were determined by Hill transformation of the data and pKi values were determined by the Cheng-Prusoff equation.

- EC50 [1]: 448 nM
- Ki [2]: 141 nM
SMILES: Nc1nccc(N[C@H]2CC[C@H](N)CC2)n1 [Example 16, Trans-N^4-(4-aminocyclohexyl)pyrimidine-2,4-diamine]
